## scFv variants of Ab-91 (heavy chain) against a SARS-CoV-2 spike peptide

The measurements come from Engelhart et al. 2022 (doi:10.1038/s41597-022-01779-4) through the FLAb antibody collection.

Antigen: PDVDLGDISGINAS, a 14-residue peptide of the SARS-CoV-2 spike HR2 region.

Parent: Ab-91, a human scFv built as VL, a 15-residue (Gly4Ser)3 linker, VH. Only the CDRs of the heavy chain vary.
VL: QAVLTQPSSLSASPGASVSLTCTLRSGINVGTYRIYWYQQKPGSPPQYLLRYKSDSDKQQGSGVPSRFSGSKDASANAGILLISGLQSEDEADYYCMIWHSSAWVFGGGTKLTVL
VH: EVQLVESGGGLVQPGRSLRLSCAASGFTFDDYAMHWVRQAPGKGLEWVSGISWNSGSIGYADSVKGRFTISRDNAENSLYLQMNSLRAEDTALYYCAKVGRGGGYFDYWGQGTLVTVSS

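The parent was found by panning a naive human phage display library on the peptide. Library AAYL51 holds single substitutions and randomly drawn double and triple substitutions in the CDRs. The scFvs were displayed on barcoded MATa yeast, the peptide on MATalpha yeast. The frequency of each diploid, read from paired DNA barcodes, reflects how well the two displayed proteins bind. A regression on co-assayed BCL2-family reference pairs converts the normalised counts of each replicate to an apparent Kd. Each pool was mated in three replicate cultures.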

Positions count from residue 1 of the parent VH; V64Y puts Y in place of V.
Numbers give log10(Kd / nM), so 0 is 1 nM and 3 is 1 µM. Smaller is tighter.
The mean shown is taken over the replicates in which the pair was detected.
A pair that was not seen in any replicate is written "not detected"; this usually means weak binding, but a binder can also be missed.
Background: pairings of library AAYL51 with three empty control strains gave a value in 21% of cases (median 4.54, 5th percentile 3.26). Values in that range, when seen in few replicates, are hard to tell from nonspecific mating. Also given: how often the same scFv was detected with the empty control strains.

changes	log10 Kd (nM), mean	seen in	signal with controls
V64Y+G102P	not detected	0/3	0/9
A33G+V64M+Y108Q	3.89	1/3	2/9
F29R+S52C+G56A	4.92	2/3	2/9
T28I+F29E+G50S	5.81	2/3	4/9
G59W+G100I+Y105V	5.02	2/3	5/9
S55T+V99R+G100R	2.41	3/3	2/9
F29S+M34R+D62P	6.28	2/3	6/9
T28F+D31A+Y108W	4.20	1/3	1/9
G26P+Y32R+Y108V	3.36	2/3	2/9
T28L+I51H+G104K	5.64	1/3	1/9
Y32I+W53K+D107M	not detected	0/3	3/9
D31G+N54L+G100N	not detected	0/3	0/9
A33E+M34L+K65C	3.21	2/3	2/9
D30F+K65E+V99A	5.06	1/3	0/9
F27D+W53C+Y108F	3.86	1/3	2/9
A33T+M34D	not detected	0/3	2/9
A33T+I51L+F106E	4.71	1/3	3/9
Y32F+K65E+G100E	0.46	3/3	7/9
N54F+F106C	4.74	1/3	2/9
A61N+V99N	2.88	3/3	0/9
I51D+S52Y+G56T	4.93	1/3	3/9
G26F+H35P+N54M	5.12	3/3	5/9
G26W+S52E+D62H	4.79	1/3	1/9
A33H+W53G+G56S	4.83	2/3	3/9
A33N+K65P+V99Q	not detected	0/3	0/9
F27H+Y105M+F106I	5.02	2/3	2/9
F27D+N54G+K65E	not detected	0/3	0/9
D31E+Y32M+N54L	4.06	1/3	3/9
W53P+G103N+Y105I	1.37	3/3	3/9
H35C+G102K	4.34	1/3	0/9
T28G+W53K+S55P	not detected	0/3	0/9
S52D+W53P+G56K	4.34	1/3	4/9
W53G+S57Q+G104F	not detected	0/3	0/9
I58W+R101Y	3.00	3/3	4/9
F27V+D107W+Y108C	0.86	3/3	4/9
N54V+I58G+G104K	not detected	0/3	0/9
D31R+S57C+D107L	3.31	1/3	4/9
F27I+K65P+Y108N	4.83	2/3	2/9
G50M+I58T+D107T	not detected	0/3	2/9
H35V+G104W+Y108E	3.49	1/3	1/9
W53V+D62H+G104A	not detected	0/3	1/9
A33N+S52K+G102V	5.04	1/3	1/9
F27E+F29V+R101S	not detected	0/3	2/9
F27V+S55T+S57F	2.31	3/3	0/9
I51Q+G59M+S63A	not detected	0/3	2/9
A61K+S63R+D107T	not detected	0/3	1/9
I51A+I58T+K65N	not detected	0/3	0/9

From the list, the first 4 with no signal in any replicate:

changes	log10 Kd (nM), mean	seen in	signal with controls
V64Y+G102P	not detected	0/3	0/9
Y32I+W53K+D107M	not detected	0/3	3/9
D31G+N54L+G100N	not detected	0/3	0/9
A33T+M34D	not detected	0/3	2/9